# Data taken from patent US20080305092A1, “Methods of treating autoimmune disease via CTLA-4IG” (THE REGENTS OF THE UNIVERSITY OF MICHIGAN, priority 1993, published 2008).
# Test system: CD28-stimulated IL-2 production of T cells
# Experiment: CD28-stimulated IL-2 production with or without herbimycin A, bioassay
# Conditions: herbimycin A 1 μM; stimulation with immobilized anti-CD3 or PMA
smiles,measurement,value
CO[C@H]1[C@@H](OC)C[C@H](C)[C@@H](OC)C2=CC(=O)C=C(NC(=O)/C(C)=C/C=C\[C@H](OC)[C@@H](OC(N)=O)/C(C)=C/[C@@H]1C)C2=O [herbimycin A],CD28 mAb mediated enhancement of IL-2 production,nearly completely inhibited
